Reference: paper PMC4404319 (ACS Chemical Neuroscience, 2015)

Biological target: T1, NLK (Homo sapiens, UniProt Q9UBE8)
T1 sequence (Q9UBE8 1-527): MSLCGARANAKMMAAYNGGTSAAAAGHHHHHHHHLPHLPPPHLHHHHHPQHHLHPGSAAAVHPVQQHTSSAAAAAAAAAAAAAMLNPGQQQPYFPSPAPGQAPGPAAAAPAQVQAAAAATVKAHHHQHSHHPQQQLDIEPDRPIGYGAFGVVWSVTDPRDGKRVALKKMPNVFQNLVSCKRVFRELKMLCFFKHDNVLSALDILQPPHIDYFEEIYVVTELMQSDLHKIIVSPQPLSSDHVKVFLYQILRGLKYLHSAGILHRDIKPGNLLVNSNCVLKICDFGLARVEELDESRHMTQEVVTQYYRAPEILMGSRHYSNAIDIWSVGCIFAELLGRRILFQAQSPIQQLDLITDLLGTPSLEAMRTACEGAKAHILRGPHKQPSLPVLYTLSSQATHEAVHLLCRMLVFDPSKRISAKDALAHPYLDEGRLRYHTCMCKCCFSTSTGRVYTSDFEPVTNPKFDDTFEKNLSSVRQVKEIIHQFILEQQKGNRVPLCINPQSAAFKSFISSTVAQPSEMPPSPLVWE
Conditions: selectivity p38α over atypical NLK

CN1CCN(c2cc(-c3ccncc3)c(-c3ccc4ccccc4c3)nn2)CC1 [MW150, 6-(4-Methylpiperazin-1-yl)-3-(naphthalen-2-yl)-4-(pyridin-4-yl)pyridazine]
IC50 for p38αMAPK better than that for NLK: ~6 fold
